Apparent affinities of Ab-14 variants for a coronavirus HR2 peptide

Binding partner: SARS-CoV-2 spike HR2 peptide, sequence PDVDLGDISGINAS.

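Phage display of a naive human antibody library on the peptide gave the parent. These sequences belong to a second round, designed from the earlier measurements on random variants of the parent. Their group label is 14L_En_Gibbs (En: ensemble of fine-tuned language models; Gibbs: Gibbs sampling). Affinity was read by AlphaSeq, a pooled yeast mating assay with surface-displayed partners. Pairs that bind mate more often; barcode pairs of the diploids are counted by sequencing. Read counts were normalised to the haploid input and turned into Kd by a linear fit to BCL2-family pairs of known affinity, for each replicate. There are six technical replicates.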

Parent scFv Ab-14: VH joined to VL by a 15-residue (Gly4Ser)3 linker. Changes lie in the light chain CDRs alone.
VH: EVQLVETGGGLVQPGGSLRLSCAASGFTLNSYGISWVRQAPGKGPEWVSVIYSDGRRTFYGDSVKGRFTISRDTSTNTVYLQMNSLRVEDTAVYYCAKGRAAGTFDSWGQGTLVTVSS
VL: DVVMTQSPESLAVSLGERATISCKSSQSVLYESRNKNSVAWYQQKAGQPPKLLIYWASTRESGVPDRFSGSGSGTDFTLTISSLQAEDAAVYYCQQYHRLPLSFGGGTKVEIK

Sequences are complete VL domains. Affinities are written as log10 Kd with Kd in nM; a lower number is a better binder. A pair that was not seen in that replicate is written "n.d."; this usually means weak binding, but a binder can also be missed. A sequence measured in both rounds can read differently, since the two assays cover different ranges. The parent sequence was in this pool as ten entries: three were never detected, three once, and four in most replicates, with averages from 0.34 to 2.37. In the paper, a design with two or fewer of six values counts as a poor binder. As a blank, each scFv also met three strains without target: over all light chain designs, 4% of these pairings were detected, typically at 2.64 and seldom below 1.59. For each scFv, signals with the empty controls are counted beside the result, with their mean in brackets.

| # | VL | log10 Kd (nM) by replicate | empty controls |
|---|---|---|---|
| 1 | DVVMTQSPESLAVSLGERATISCNMHNMCYQYENYGNSIAWYQQKAGQPPKLLIYQANLRENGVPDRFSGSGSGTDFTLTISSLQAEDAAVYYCQQYSRLPFTFGGGTKVEIK | 0.73 / 0.91 / 1.09 / 1.15 / 1.41 / 0.92 | 0/18 |
| 2 | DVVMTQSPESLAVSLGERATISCKFAIDLEVGIQHLNHVAWYQQKAGQPPKLLIYEASHTRYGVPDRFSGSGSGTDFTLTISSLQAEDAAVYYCQQYSRLPLTFGGGTKVEIK | 0.90 / 1.21 / 0.34 / 1.00 / 0.99 / 0.65 | 0/18 |
| 3 | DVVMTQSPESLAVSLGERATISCHISNMQAYGYSAYNSVAWYQQKAGQPPKLLIYDNETKLNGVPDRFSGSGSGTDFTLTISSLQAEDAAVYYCQQYIRLPLTFGGGTKVEIK | 0.69 / 1.04 / 0.74 / -0.17 / 0.56 / 1.47 | 0/18 |
| 4 | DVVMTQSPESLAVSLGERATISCIIAENSDDITEKQNSIAWYQQKAGQPPKLLIYETSQVTQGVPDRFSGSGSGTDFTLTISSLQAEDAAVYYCQQYHLLPLAFGGGTKVEIK | 1.65 / n.d. / 2.59 / 1.86 / n.d. / 4.73 | 3/18 (2.41) |
| 5 | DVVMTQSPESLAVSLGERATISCKLDSAEQHGTNQKSAMAWYQQKAGQPPKLLIYSASVSTQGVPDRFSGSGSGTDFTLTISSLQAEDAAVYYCQQYSRLPLSFGGGTKVEIK | 1.29 / 0.13 / 0.40 / 0.74 / 0.65 / 1.88 | 0/18 |
| 6 | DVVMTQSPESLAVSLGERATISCTLLYGVTEAAKPGKAIAWYQQKAGQPPKLLIYGNEERAQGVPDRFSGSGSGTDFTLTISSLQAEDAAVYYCQQYFRLPLSFGGGTKVEIK | 0.45 / 0.14 / 0.14 / -0.20 / 0.01 / 0.15 | 0/18 |
| 7 | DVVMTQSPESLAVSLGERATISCHIDQFTSYDNGEDRAIAWYQQKAGQPPKLLIYDVTIRDYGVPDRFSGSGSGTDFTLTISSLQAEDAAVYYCQQYARLPLLFGGGTKVEIK | 1.00 / 1.02 / 0.89 / 0.72 / 0.73 / 0.93 | 2/18 (3.07) |
| 8 | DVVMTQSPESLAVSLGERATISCQVRDEQWAEGMNIQSIAWYQQKAGQPPKLLIYEGEVSKDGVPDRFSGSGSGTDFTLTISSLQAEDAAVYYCQQYNRLPLSFGGGTKVEIK | 0.09 / n.d. / n.d. / n.d. / 0.79 / n.d. | 0/18 |
| 9 | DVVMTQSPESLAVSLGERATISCKLTEAMASWTGDRHNIAWYQQKAGQPPKLLIYDITVTAPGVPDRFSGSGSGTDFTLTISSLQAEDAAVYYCQQYSRLPITFGGGTKVEIK | 0.21 / 0.21 / 0.14 / -0.04 / 0.07 / 0.28 | 0/18 |
| 10 | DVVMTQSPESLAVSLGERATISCKLRHHNLDFYEFENNIAWYQQKAGQPPKLLIYGESMRAVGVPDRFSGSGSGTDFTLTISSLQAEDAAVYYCQQYYRLPLNFGGGTKVEIK | n.d. / n.d. / n.d. / n.d. / n.d. / n.d. | 0/18 |
| 11 | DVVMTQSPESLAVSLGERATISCQLGQTIWADIMNKKSIAWYQQKAGQPPKLLIYAEETLIDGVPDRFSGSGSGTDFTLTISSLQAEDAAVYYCQQYNRLPLSFGGGTKVEIK | 0.80 / 0.49 / 0.96 / 0.40 / 0.94 / 0.74 | 1/18 (2.84) |
| 12 | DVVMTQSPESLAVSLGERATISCMVTMELRYGDAWQNPIAWYQQKAGQPPKLLIYEASHLEVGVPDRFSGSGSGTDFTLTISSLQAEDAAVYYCQQYAHLPLGFGGGTKVEIK | 1.22 / 0.89 / 0.30 / 0.67 / 1.16 / 1.22 | 0/18 |
| 13 | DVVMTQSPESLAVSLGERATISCKLRHHNLDFYEVENSIAWYQQKAGQPPKLLIYGESMRAAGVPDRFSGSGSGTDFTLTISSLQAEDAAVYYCQQYYRLPLNFGGGTKVEIK | 0.84 / 1.08 / 0.88 / 0.99 / 0.79 / 0.89 | 1/18 (3.55) |
| 14 | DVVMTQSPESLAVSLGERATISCYVSSQAAQDRNQQYSIAWYQQKAGQPPKLLIYGVDYREKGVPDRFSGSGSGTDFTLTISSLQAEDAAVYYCQQYYHLPLSFGGGTKVEIK | 0.90 / 0.65 / 0.73 / 0.88 / 0.76 / 0.99 | 3/18 (2.20) |
| 15 | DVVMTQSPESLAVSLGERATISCRLQQEHGGYPKMMDNIAWYQQKAGQPPKLLIYQGSQRQHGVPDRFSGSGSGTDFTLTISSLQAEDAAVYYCQSYDRLPLSFGGGTKVEIK | 0.54 / 0.48 / 0.76 / 0.48 / 0.23 / 0.27 | 0/18 |
| 16 | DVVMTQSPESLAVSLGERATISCQLHAYTQGFWRAMGNIAWYQQKAGQPPKLLIYDISYRVTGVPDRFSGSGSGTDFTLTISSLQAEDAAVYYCQQYGRLPLSFGGGTKVEIK | n.d. / 2.53 / n.d. / 1.78 / 3.63 / 2.15 | 1/18 (2.49) |
| 17 | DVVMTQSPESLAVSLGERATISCKLRNEAIGWNRNEWSIAWYQQKAGQPPKLLIYDEHYRGDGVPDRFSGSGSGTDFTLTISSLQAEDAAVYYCQQYFHLPLLFGGGTKVEIK | n.d. / n.d. / 1.41 / 1.07 / n.d. / n.d. | 0/18 |
| 18 | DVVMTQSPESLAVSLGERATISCSLSNQETEQIQHANSIAWYQQKAGQPPKLLIYDRDERDVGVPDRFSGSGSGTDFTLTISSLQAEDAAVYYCQQYAHLPLSFGGGTKVEIK | 0.76 / 0.53 / 0.38 / 0.08 / 0.58 / 0.27 | 2/18 (2.85) |
| 19 | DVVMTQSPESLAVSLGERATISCHMSESDHGHNAGVGNMAWYQQKAGQPPKLLIYNATESTEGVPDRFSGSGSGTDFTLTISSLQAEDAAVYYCQQYMHLPLSFGGGTKVEIK | 1.02 / 0.73 / 0.30 / 0.24 / 0.35 / 0.67 | 0/18 |
| 20 | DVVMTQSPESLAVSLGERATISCTLMFAGEQEDSENKAIAWYQQKAGQPPKLLIYDAIHKGVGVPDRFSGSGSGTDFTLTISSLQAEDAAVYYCQQYNRLPLTFGGGTKVEIK | -0.31 / -0.20 / -0.45 / -0.28 / -0.22 / 0.27 | 0/18 |

The first 3 entries again:

VL,log10 Kd (nM) by replicate,empty controls
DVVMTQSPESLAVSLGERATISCNMHNMCYQYENYGNSIAWYQQKAGQPPKLLIYQANLRENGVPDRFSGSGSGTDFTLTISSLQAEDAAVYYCQQYSRLPFTFGGGTKVEIK,0.73 / 0.91 / 1.09 / 1.15 / 1.41 / 0.92,0/18
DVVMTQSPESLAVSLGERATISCKFAIDLEVGIQHLNHVAWYQQKAGQPPKLLIYEASHTRYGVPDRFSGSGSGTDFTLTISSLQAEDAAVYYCQQYSRLPLTFGGGTKVEIK,0.90 / 1.21 / 0.34 / 1.00 / 0.99 / 0.65,0/18
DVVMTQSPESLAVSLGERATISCHISNMQAYGYSAYNSVAWYQQKAGQPPKLLIYDNETKLNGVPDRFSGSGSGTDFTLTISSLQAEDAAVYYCQQYIRLPLTFGGGTKVEIK,0.69 / 1.04 / 0.74 / -0.17 / 0.56 / 1.47,0/18

Source: Li et al. 2023 (doi:10.1038/s41467-023-39022-2), MIT Lincoln Laboratory and A-Alpha Bio; data file from the FLAb repository.